Patent US6071908A (priority 1995, dated 2000)
pIC50: −log10 of the molar value.

Experiments:
[1] = Assay 1: radiolytic reduction of prodrug in formate buffer (or other solution), products analysed by HPLC; conditions: prodrug 50 μM in sodium formate pH 7.0, anoxic, cobalt-60
UV4 cells = experiment: Cytotoxicity against UV4 cells, 4 hr aerobic exposure; assay type: cell-based; conditions: read-out: IC50, P (unirradiated prodrug); UV4, 4 hr aerobic exposure; mean ± SEM
SKOV3 cells = experiment: Cytotoxicity against SKOV3 cells, 4 hr aerobic exposure; assay type: cell-based, human; conditions: read-out: IC50, P (unirradiated prodrug); SKOV3, 4 hr aerobic exposure; mean ± SEM

Molecule | G(+E), anoxic, Assay 1 (yield of effector) [1] | pIC50 (UV4 cells) | pIC50 (SKOV3 cells)
C[N+](C)(CCNC(=O)c1cccc2cc3ccccc3nc12)Cc1ccc([N+](=O)[O-])cc1 [Compound 15, 2-[N-(acridin-4-yl)carbonyl]aminoethyl-(dimethyl)-4-nitrobenzylammonium bromide] | 0.072 μM/Gy | – | –
C[N+](C)(CCNC(=O)c1cccc2cc3ccccc3nc12)Cc1ccc([N+](=O)[O-])s1 [Compound 16, 2-[N-(acridin-4-yl)carbonyl]aminoethyl-(dimethyl)-(5-nitro-2-thienyl)methylammonium chloride] | 0.19 μM/Gy | – | –
Cc1cccc2c(N)c3cccc(C(=O)NCC[N+](C)(C)Cc4ccc([N+](=O)[O-])cc4)c3nc12 [Compound 17, 2-[N-(9-amino-5-methylacridin-4-yl)carbonyl]aminoethyl-(dimethyl)-4-nitrobenzylammonium bromide] | 0.034 μM/Gy | – | –
bis(3-methyl-2,4-pentanedionato)(N-[3-[(2-aminoethyl)-amino]propyl]acridine-4-carboxamide)cobalt(III) perchlorate | 0.8 μM/Gy | 4.51 | 4.13
